Among the data in patent US9221831B2, “Buprenorphine analogs” (dated 2015) are IC50, hot plate latencies and tail flick latencies values, retold here.

By UniProt entry, the sequences of proteins in these tests, tags left out. Where a name states a change or a piece, a line headed by the entry shows the natural chain unless it says otherwise.
UniProt P41146: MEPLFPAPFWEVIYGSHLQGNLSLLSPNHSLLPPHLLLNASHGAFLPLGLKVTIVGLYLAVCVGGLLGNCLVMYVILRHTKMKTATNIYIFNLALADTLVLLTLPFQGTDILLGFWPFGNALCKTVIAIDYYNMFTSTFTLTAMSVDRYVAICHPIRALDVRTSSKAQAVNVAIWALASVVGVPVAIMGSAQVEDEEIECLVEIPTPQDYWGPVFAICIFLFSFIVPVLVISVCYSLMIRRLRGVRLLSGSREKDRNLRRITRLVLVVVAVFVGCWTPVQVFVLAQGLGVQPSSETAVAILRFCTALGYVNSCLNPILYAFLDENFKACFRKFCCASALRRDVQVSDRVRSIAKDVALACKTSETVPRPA

One assay concerns the target ORL-1 (Homo sapiens (Human), UniProt P41146). The following applies: read-out: IC50 (at least partial agonist for ORL-1); Wnendt et al., Molec. Pharmacol. 1999; cited from earlier work.
For assay [1], the system named is rats. The experiment in a line: rat hot plate test (acute pain). The following applies: subcutaneously, at 1, 3 and 5 hours following drug administration (FIG. 2). (In general: Thermal pain tests record how soon the animal reacts.)
Assay [2] concerns rats. The experiment in a line: rat tail flick test (acute pain). The following applies: subcutaneously.

As a reminder, the IC50 is the concentration that gives 50% inhibition. With 7-benzylidenenaltrexone, the IC50 on ORL-1 was 10 µM.
As for `CO[C@]12CC[C@@]3(C[C@@H]1COCc1ccccc1)[C@H]1Cc4ccc(O)c5c4[C@@]3(CCN1)[C@H]2O5`, the hot plate latencies entry in the assay with rats [1] (1 mg/kg) and in the assay with rats [1] (3 mg/kg) was “significantly increased” throughout. For the same compound, the tail flick latencies entry in the assay with rats [2] (1 mg/kg, at 1 hour following drug administration (FIG. 1)) was “significantly increased”; in the assay with rats [2] (3 mg/kg, at 1, 3 and 5 hours after drug administration, compared to vehicle treated rats (FIG. 1)), “significantly increased”.
